Values of other authors as cited in patent EP2738198A1, “Enzymatic synthesis of polyamide in aqueous mini-emulsion” (Henkel AG & Co. KGaA, priority 2012, dated 2014).

Conditions: alcohol CnH2n+1OH corresponding to the alkyl group of the di(alkyl) sebacate, data from Handbook of Chemistry and Physics 86th Edition

CCCCCO [n 5]
Partial Solubility of CnH2n+1OH in water: 32 mg/mL

CCCCCCCO [n 7]
Partial Solubility of CnH2n+1OH in water: 2.5 mg/mL
